Reference: patent publication WO2019234021A1

Molecular target: Fcgamma Receptor IIIa (FcyRIIIa, CD16a) on NK cells or PBMCs (UniProt P08637)
Assay: cell-based or functional assay

fold increased potency over the H-M reference (EC50 ratio), ADCC in the presence of NK cells [fold]	Substance
9	Man3-adalimumab (A-M) (antibody)
13	sialylated adalimumab (A-S) (antibody)
